Experimental data published in BindingDB's records for doi:10.1074/jbc.271.42.26315 (Bayer, 1996).

Target: T1, Neuropeptide Y receptor type 5 (Homo sapiens, UniProt Q15761)
T1 sequence (Q15761 whole entry): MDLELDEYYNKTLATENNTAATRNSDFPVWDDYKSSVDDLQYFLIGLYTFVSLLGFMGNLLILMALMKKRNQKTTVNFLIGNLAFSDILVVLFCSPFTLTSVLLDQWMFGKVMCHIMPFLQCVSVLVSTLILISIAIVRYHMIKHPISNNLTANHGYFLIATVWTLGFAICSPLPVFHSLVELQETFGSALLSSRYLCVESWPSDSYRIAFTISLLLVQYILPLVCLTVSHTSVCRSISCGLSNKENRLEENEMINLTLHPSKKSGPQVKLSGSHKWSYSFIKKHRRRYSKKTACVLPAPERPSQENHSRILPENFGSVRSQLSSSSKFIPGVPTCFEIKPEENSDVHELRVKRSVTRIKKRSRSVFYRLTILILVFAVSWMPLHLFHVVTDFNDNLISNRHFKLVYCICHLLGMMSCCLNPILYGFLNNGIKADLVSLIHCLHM

CC[C@H](C)[C@H](NC(=O)[C@@H]1CCCN1C(=O)[C@@H](N)Cc1ccc(O)cc1)C(=O)N[C@@H](CCCCN)C(=O)N1CCC[C@H]1C(=O)N[C@@H](CCC(=O)O)C(=O)N[C@@H](C)C(=O)N1CCC[C@H]1C(=O)NCC(=O)N[C@@H](CCC(=O)O)C(=O)N[C@@H](CC(=O)O)C(=O)N[C@@H](C)C(=O)N[C@@H](CO)C(=O)N1CCC[C@H]1C(=O)N[C@@H](CCC(=O)O)C(=O)N[C@@H](CCC(=O)O)C(=O)N[C@@H](CC(C)C)C(=O)N[C@@H](CC(N)=O)C(=O)N[C@@H](CCCN=C(N)N)C(=O)N[C@@H](Cc1ccc(O)cc1)C(=O)N[C@@H](Cc1ccc(O)cc1)C(=O)N[C@@H](C)C(=O)N[C@@H](CO)C(=O)N[C@@H](CC(C)C)C(=O)N[C@@H](CCCN=C(N)N)C(=O)N[C@@H](Cc1c[nH]cn1)C(=O)N[C@@H](Cc1ccc(O)cc1)C(=O)N[C@@H](CC(C)C)C(=O)N[C@@H](CC(N)=O)C(=O)N[C@@H](CC(C)C)C(=O)N[C@@H](CC(C)C)C(=O)N[C@H](C(=O)N[C@@H](CCCN=C(N)N)C(=O)N1CCC[C@H]1C(=O)N[C@@H](CCCN=C(N)N)C(=O)N[C@@H](Cc1ccc(O)cc1)C(N)=O)[C@@H](C)O [PYY,[leu31,Pro34], human]
Ki: 1.7 nM
